The results in this text go back to patent publication US5066783A, “Antiviral peptides and means for treating herpes infections” (priority 1988, dated 1991).

Amino acid sequences for entries named in this document (tags omitted). A change or cut given only in a name is not applied to a line headed by its entry.
UniProt P08543: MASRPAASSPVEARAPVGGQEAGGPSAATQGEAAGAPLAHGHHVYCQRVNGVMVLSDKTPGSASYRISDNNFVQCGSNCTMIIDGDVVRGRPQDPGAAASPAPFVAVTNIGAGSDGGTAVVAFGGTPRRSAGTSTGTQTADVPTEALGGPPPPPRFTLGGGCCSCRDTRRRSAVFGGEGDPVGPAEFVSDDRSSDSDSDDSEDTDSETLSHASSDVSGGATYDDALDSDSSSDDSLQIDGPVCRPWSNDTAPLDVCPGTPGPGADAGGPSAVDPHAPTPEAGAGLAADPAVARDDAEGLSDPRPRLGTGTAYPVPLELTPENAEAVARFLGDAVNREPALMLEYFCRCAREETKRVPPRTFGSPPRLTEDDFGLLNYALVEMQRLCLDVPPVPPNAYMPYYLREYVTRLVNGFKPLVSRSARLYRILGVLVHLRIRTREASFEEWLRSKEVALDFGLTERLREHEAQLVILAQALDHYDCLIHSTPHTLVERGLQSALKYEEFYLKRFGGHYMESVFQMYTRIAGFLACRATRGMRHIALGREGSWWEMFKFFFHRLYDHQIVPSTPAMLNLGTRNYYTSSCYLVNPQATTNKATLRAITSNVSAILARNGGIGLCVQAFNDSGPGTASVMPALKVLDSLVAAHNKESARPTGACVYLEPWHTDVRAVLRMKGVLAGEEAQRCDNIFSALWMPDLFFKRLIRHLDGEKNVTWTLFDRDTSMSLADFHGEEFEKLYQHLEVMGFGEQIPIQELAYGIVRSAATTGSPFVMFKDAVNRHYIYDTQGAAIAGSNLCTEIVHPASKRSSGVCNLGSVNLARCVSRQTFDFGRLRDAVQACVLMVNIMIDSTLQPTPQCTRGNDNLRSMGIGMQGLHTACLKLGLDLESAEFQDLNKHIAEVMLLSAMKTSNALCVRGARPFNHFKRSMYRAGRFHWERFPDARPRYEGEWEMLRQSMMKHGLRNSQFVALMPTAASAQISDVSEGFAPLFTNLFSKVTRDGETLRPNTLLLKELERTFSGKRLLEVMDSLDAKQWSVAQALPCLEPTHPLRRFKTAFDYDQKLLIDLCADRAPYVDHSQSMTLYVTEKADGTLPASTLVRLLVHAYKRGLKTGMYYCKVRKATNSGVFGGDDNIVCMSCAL

For experiment [1], the target named is T1, herpes simplex viral ribonucleotide reductase (Human herpesvirus 1, UniProt P08543).
T1 construct: endogenous in cells
Format: biochemical, herpes simplex virus. The note with it: read-out: IC50 (concentration producing 50% of the maximal inhibition of enzyme activity).

Experiment [2] deals with ribonucleotide reductase from HSV-1 (strain F)-infected BHK-21/C13 cells (Human herpesvirus 1, UniProt P08543). The experiment in a line: HSV-1 ribonucleotide reductase (CDP reductase) inhibition.

Take `CC(C)C[C@H](NC(=O)[C@H](CC(=O)O)NC(=O)[C@H](CC(N)=O)NC(=O)[C@@H](NC(=O)[C@@H](NC(=O)[C@H](C)NC(=O)CNC(=O)[C@H](C)NC(=O)[C@H](N)Cc1ccc(O)cc1)C(C)C)C(C)C)C(=O)O` [H--D--Tyr--Ala--Gly--Ala--Val--Val--Asn--Asp--Leu--OH]: the IC50 in experiment [1] amounted to 200 µM.
In the case of `CC(C)C[C@H](NC(=O)[C@H](CC(=O)O)NC(=O)[C@H](CC(N)=O)NC(=O)[C@@H](NC(=O)[C@@H](NC(=O)[C@H](C)NC(=O)CNC(=O)[C@@H](C)NC(=O)[C@@H](N)Cc1ccc(O)cc1)C(C)C)C(C)C)C(=O)O` [H--Tyr--D--Ala--Gly--Ala--Val--Val--Asn--Asp--Leu--OH], the IC50 in experiment [1] was found to be 200 µM.
For the molecule `CC(C)C[C@H](NC(=O)[C@H](CC(=O)O)NC(=O)[C@H](CC(N)=O)NC(=O)[C@@H](NC(=O)[C@@H](NC(=O)[C@H](C)NC(=O)CNC(=O)[C@H](C)NC(=O)[C@@H](N)Cc1ccc(O)cc1)C(C)C)C(C)C)C(=O)O` [HSV 7-15, L-tyrosyl-L-alanyl-glycyl-L-alanyl-L-valyl-L-valyl-L-asparagyl-L-aspartyl- L-leucine], the IC50 in experiment [2] was 22 µM.
